# Binding of CDR-mutated scFvs to a peptide of the spike HR2 region

Reference: Li et al. 2023, doi:10.1038/s41467-023-39022-2. File: FLAb, binding data.

Target: peptide PDVDLGDISGINAS, taken from heptad repeat 2 (HR2) of SARS-CoV-2 spike.

The variants keep the light chain, the linker and the frameworks of Ab-14 (scFv order VH, a (GGGGS)3 linker, VL).
VH: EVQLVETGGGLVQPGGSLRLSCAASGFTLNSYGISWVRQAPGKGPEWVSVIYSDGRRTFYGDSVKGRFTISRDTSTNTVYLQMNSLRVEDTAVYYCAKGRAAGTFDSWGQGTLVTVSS
VL: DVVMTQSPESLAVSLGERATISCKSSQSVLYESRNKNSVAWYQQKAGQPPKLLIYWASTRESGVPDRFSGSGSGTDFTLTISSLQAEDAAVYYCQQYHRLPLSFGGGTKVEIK

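The variants were designed computationally from a first round of random CDR variants and then made and measured. Their group label is 14H_GPLM_Gen (GPLM: also part of the Gaussian process libraries; Gen: genetic algorithm; a sequence that several methods proposed may carry one label only). The scFvs were displayed on barcoded MATa yeast, the peptide on MATalpha yeast. Pairs that bind mate more often; barcode pairs of the diploids are counted by sequencing. Each replicate has its own calibration line, from reference interactions of the BCL2 family. The assay was run in six technical replicates.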

The parent's heavy chain CDRs are GFTLNSYGIS, VIYSDGRRTFYGDSVK, GRAAGTFDS; each variant's own CDRs replace them letter for letter.
Values are log10 of the apparent Kd in nM; lower means stronger binding.
A pair that was not seen in that replicate is written "n.d."; this usually means weak binding, but a binder can also be missed.
Background: pairings of all heavy chain designs with three empty control strains gave a value in 1% of cases (median 2.08, 5th percentile 0.84). Values in that range, when seen in few replicates, are hard to tell from nonspecific mating. Also given: how often the same scFv was detected with the empty control strains, with their mean in brackets.

| # | CDR-H1 | CDR-H2 | CDR-H3 | replicates, log10 nM | signal with controls |
|---|---|---|---|---|---|
| 1 | GFDLNSYGIS | VIYSDGRRTFYCDSVK | GRTAGTFDS | 0.55 / 1.25 / 0.59 / 0.45 / 0.47 / 0.55 | 0 of 18 |
| 2 | GFSLNEYGIS | VIYSDGRRTFYGDSVK | GRTAGTFSS | -0.41 / 0.01 / 0.02 / -0.31 / -0.55 / -0.28 | 0 of 18 |
| 3 | GFDLNSYGIS | VIYSDGRRTFYGDSVK | GKAAGTFDL | n.d. / n.d. / n.d. / n.d. / n.d. / n.d. | 0 of 18 |
| 4 | GFFLNEYGIS | VIYSDGRRTFYGDSVK | GRTAGTFDS | 0.62 / 1.55 / 0.77 / 0.63 / 0.73 / 1.09 | 3 of 18 (2.85) |
| 5 | GFTLNDYGIS | VIYSDGRRTFYGDSVK | GRNAGTFDT | -0.06 / 0.31 / 0.53 / 0.26 / -0.06 / -0.43 | 0 of 18 |
| 6 | GFSLNEYGIS | VIYSDGRRTVYGDSVK | GRAAGTFDS | -0.35 / -0.15 / -0.25 / -0.60 / -0.44 / -0.01 | 0 of 18 |
| 7 | GFTLNSYGIS | VIYADGRRTFYGDSVK | GQAAGTFKS | 2.45 / 0.79 / n.d. / 0.86 / n.d. / 1.94 | 0 of 18 |
| 8 | GFSLNEYGIS | VIYSDGRRTFYGDSVK | GKAAGTFDK | 0.42 / 0.76 / 0.25 / -0.23 / -0.64 / -0.24 | 0 of 18 |
| 9 | GFSLNSYGIS | VIYADGRRTFYGDSVK | GRAAGTFDK | 0.16 / -0.84 / -0.77 / -0.12 / 0.16 / -1.09 | 0 of 18 |
| 10 | GFSLNSYGIS | VIYSDGRRTFYADSVK | GWAAGTFDS | -0.02 / -0.18 / -0.31 / -0.20 / 0.05 / -0.04 | 0 of 18 |
| 11 | GFSLNSYGIS | VIYSDGRRTFYTDSVK | GKTAGTFDS | 1.78 / 0.35 / 0.36 / 0.27 / 0.06 / 0.40 | 0 of 18 |
| 12 | GFSLNSYGIS | VIYSDGRRTFYGDSVK | GSAAGTFDD | 0.79 / 0.23 / -0.08 / 0.30 / 0.79 / 0.38 | 0 of 18 |
| 13 | GFLLNEYGIS | VIYSDGRRTFYGDSVK | GRTAGTFDS | 0.86 / 0.21 / 0.39 / 0.24 / 0.21 / 0.12 | 0 of 18 |
| 14 | GFDLNSYGIS | VIYSDGRRTFYCDSVK | GEAAGTFDS | 1.37 / 1.61 / n.d. / 1.55 / 2.07 / 1.62 | 0 of 18 |
| 15 | GFTLNSYGIS | VIYSDGRRTFYADSVK | GKVAGTFDS | 0.12 / 0.70 / 0.30 / 0.30 / 0.31 / 0.28 | 0 of 18 |
| 16 | GFDLNSYGIS | VIYSDGRRTFYKDSVK | GRTAGTFDS | 0.42 / 0.32 / 0.26 / 0.07 / 0.80 / 0.77 | 0 of 18 |
| 17 | GFSLNSYGIS | VIYSDGRRTFYHDSVK | GRVAGTFDS | 0.45 / 0.54 / 0.48 / -0.29 / 0.39 / -0.29 | 0 of 18 |
| 18 | GFSLNEYGIS | VIYSDGRRTFYGDSVK | GRTAGTFDT | 0.45 / 0.73 / 0.26 / 1.58 / -0.62 / 0.96 | 0 of 18 |
| 19 | GFELNDYGIS | VIYSDGRRTFYGDSVK | GRTAGTFDS | 0.36 / 0.25 / 0.23 / 0.27 / -0.26 / 0.38 | 0 of 18 |
| 20 | GFTLNSYGIS | VIYADGRRTFYGDSVK | GQAAGTFDL | -0.07 / 0.18 / -0.14 / -0.02 / -0.10 / 0.26 | 0 of 18 |
| 21 | GFSLNSYGIS | VIYSDGRRTAYGDSVK | GKAAGTFDS | 0.50 / -0.09 / 0.25 / 0.48 / -0.03 / 0.45 | 1 of 18 (2.84) |
| 22 | GFNLNSYGIS | VIYADGRRTFYADSVK | GRAAGTFDS | -0.52 / -1.04 / -0.73 / -0.40 / -0.50 / -0.85 | 0 of 18 |
| 23 | GFNLNSYGIS | VIYSDGRRTFYHDSVK | GRAAGTFDS | 0.32 / 0.80 / 1.45 / 0.90 / 0.78 / 0.30 | 0 of 18 |
| 24 | GFALNEYGIS | VIYSDGRRTFYGDSVK | GQAAGTFDL | 0.75 / 1.81 / 0.88 / n.d. / n.d. / 1.46 | 0 of 18 |
| 25 | GFTLESYGIS | VIYADGRRTFYGDSVK | GWAAGTFDS | n.d. / 1.54 / 0.44 / 1.14 / 0.80 / 1.74 | 0 of 18 |
| 26 | GFDLNSYGIS | VIYSDGRRTFYADSVK | GRAAGSFDS | 1.36 / 0.68 / 1.57 / 1.19 / 0.86 / 2.16 | 1 of 18 (2.03) |
| 27 | GFSLNSYGIS | VIYSDGRRTFYSDSVK | GQVAGTFDS | n.d. / 1.36 / 0.63 / 2.33 / 1.05 / 2.59 | 0 of 18 |
| 28 | GFSLNSYGIS | VIYSDGRRTFYADSVK | GRLAGTFDT | 0.14 / -0.02 / 0.01 / 0.00 / 0.06 / 0.11 | 0 of 18 |
| 29 | GFTLNEYGIS | VIYSDGRRTFYADSVK | GRHAGTFDS | 0.14 / 0.41 / 0.04 / 0.39 / -0.03 / 0.16 | 0 of 18 |
| 30 | GFQLNEYGIS | VIYSDGRRTFYHDSVK | GKAAGTFDS | -0.23 / -0.29 / 0.02 / -0.53 / -0.30 / -0.17 | 1 of 18 (1.17) |
| 31 | KFSLNSYGIS | VIYSDGRRTFYADSVK | GNAAGTFDS | 1.29 / 1.10 / 1.41 / 1.83 / 1.75 / 1.11 | 0 of 18 |
| 32 | GFSLNSYGIS | VIYSDGRRTYYGDSVK | GRTAGTFDS | 0.61 / 0.46 / 0.11 / 0.26 / 0.39 / -0.16 | 0 of 18 |
| 33 | GFTLNDYGIS | VIYSDGRRTFYGDSVK | GREAGTFDT | -0.79 / -0.28 / -0.61 / -0.83 / -0.67 / -0.47 | 0 of 18 |
| 34 | GFTLESYGIS | VIYADGRRTFYHDSVK | GRAAGTFDS | 0.16 / 0.23 / 0.12 / 0.06 / 0.17 / 0.39 | 2 of 18 (3.02) |
| 35 | GFELNSYGIS | VIYSDGRRTFYSDSVK | GNAAGTFDS | 2.55 / 1.59 / 1.59 / 2.24 / 1.48 / 1.52 | 0 of 18 |
| 36 | GFTLDSYGIS | VIYADGRRTFYGDSVK | GRVAGTFDS | -0.17 / -0.26 / -0.26 / -0.32 / -0.39 / -0.19 | 1 of 18 (3.31) |
| 37 | GFSLNEYGIS | VIYSDGRRTFYGDSVK | GQAAGTFDC | n.d. / n.d. / n.d. / n.d. / 1.00 / 1.79 | 2 of 18 (1.56) |
| 38 | GFTLNSYGIS | VIYSDGRRTFYGDSVK | GGEAGTFDT | 0.16 / 0.17 / -0.23 / 0.28 / 0.08 / 0.56 | 1 of 18 (2.84) |
| 39 | GFSLNSYGIS | VIYSDGRRTFYKDSVK | GQAAGTFDS | 0.66 / 0.93 / 0.51 / 0.28 / 0.57 / 0.24 | 1 of 18 (2.26) |
| 40 | GFSLNSYGIS | VIYSDGRRTFYKDSVK | GQAAGTFDL | 1.28 / 0.90 / 0.58 / 1.70 / 0.89 / 1.41 | 1 of 18 (3.80) |
| 41 | GFSLNSYGIS | VIYSDGRRTFYHDSVK | GRAAGTFDS | 0.90 / 1.06 / 0.67 / 0.61 / 1.01 / 1.15 | 0 of 18 |

The 7 strongest on average among those seen in every replicate, once more:

{"CDR-H1": "GFNLNSYGIS", "CDR-H2": "VIYADGRRTFYADSVK", "CDR-H3": "GRAAGTFDS", "replicates, log10 nM": "-0.52 / -1.04 / -0.73 / -0.40 / -0.50 / -0.85", "signal with controls": "0 of 18"}
{"CDR-H1": "GFTLNDYGIS", "CDR-H2": "VIYSDGRRTFYGDSVK", "CDR-H3": "GREAGTFDT", "replicates, log10 nM": "-0.79 / -0.28 / -0.61 / -0.83 / -0.67 / -0.47", "signal with controls": "0 of 18"}
{"CDR-H1": "GFSLNSYGIS", "CDR-H2": "VIYADGRRTFYGDSVK", "CDR-H3": "GRAAGTFDK", "replicates, log10 nM": "0.16 / -0.84 / -0.77 / -0.12 / 0.16 / -1.09", "signal with controls": "0 of 18"}
{"CDR-H1": "GFSLNEYGIS", "CDR-H2": "VIYSDGRRTVYGDSVK", "CDR-H3": "GRAAGTFDS", "replicates, log10 nM": "-0.35 / -0.15 / -0.25 / -0.60 / -0.44 / -0.01", "signal with controls": "0 of 18"}
{"CDR-H1": "GFTLDSYGIS", "CDR-H2": "VIYADGRRTFYGDSVK", "CDR-H3": "GRVAGTFDS", "replicates, log10 nM": "-0.17 / -0.26 / -0.26 / -0.32 / -0.39 / -0.19", "signal with controls": "1 of 18 (3.31)"}
{"CDR-H1": "GFSLNEYGIS", "CDR-H2": "VIYSDGRRTFYGDSVK", "CDR-H3": "GRTAGTFSS", "replicates, log10 nM": "-0.41 / 0.01 / 0.02 / -0.31 / -0.55 / -0.28", "signal with controls": "0 of 18"}
{"CDR-H1": "GFQLNEYGIS", "CDR-H2": "VIYSDGRRTFYHDSVK", "CDR-H3": "GKAAGTFDS", "replicates, log10 nM": "-0.23 / -0.29 / 0.02 / -0.53 / -0.30 / -0.17", "signal with controls": "1 of 18 (1.17)"}

The authors' rule: three or more of the six replicates give a measured affinity, fewer mean a poor binder.
Values of this round are not directly comparable with the first-round values of the same sequences.